## scFv variants of Ab-91 (heavy chain) against a SARS-CoV-2 spike peptide

Target: peptide PDVDLGDISGINAS, taken from heptad repeat 2 (HR2) of SARS-CoV-2 spike.

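Phage display of a naive human antibody library on the peptide gave the parent. The library (AAYL51) carries one to three amino acid substitutions per variant, with no insertions or deletions. The scFvs were displayed on barcoded MATa yeast, the peptide on MATalpha yeast. The frequency of each diploid, read from paired DNA barcodes, reflects how well the two displayed proteins bind. Read counts were normalised to the haploid input and turned into Kd by a linear fit to BCL2-family pairs of known affinity, for each replicate. Each pool was mated in three replicate cultures.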

Ab-91 is the parent antibody, in scFv form: VL, then three GGGGS repeats, then VH. The light chain is unchanged in all variants.
VL: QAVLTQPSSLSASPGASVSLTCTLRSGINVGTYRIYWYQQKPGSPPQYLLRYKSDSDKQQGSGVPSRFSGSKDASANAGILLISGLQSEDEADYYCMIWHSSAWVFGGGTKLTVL
VH: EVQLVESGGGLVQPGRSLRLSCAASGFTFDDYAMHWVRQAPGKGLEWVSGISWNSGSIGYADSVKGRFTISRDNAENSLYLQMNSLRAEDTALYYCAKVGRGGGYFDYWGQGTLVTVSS

Changes read parent residue, position, new residue, counted from the first residue of the VH shown.
The Kd shown is the geometric mean over detected replicates; a lower Kd is a better binder.
A pair that was not seen in any replicate is written "no signal"; this usually means weak binding, but a binder can also be missed.
Empty control strains, which show no peptide, gave a signal in 21% of pairings with library AAYL51; the median was 34 µM and 95% of these signals were weaker than 1.8 µM. No background was subtracted. Also given: how often the same scFv was detected with the empty control strains.
In this assay the parent's reference entry averaged 72 nM; its copy inside this library read 7.5 nM.

{"changes": "F27D Y105Q F106V", "Kd (apparent)": "no signal", "detected": "0/3", "control signals": "0/9"}
{"changes": "V64K K65C G100W", "Kd (apparent)": "no signal", "detected": "0/3", "control signals": "1/9"}
{"changes": "S57M A61G G102V", "Kd (apparent)": "460 nM", "detected": "3/3", "control signals": "2/9"}
{"changes": "Y32H N54G K65S", "Kd (apparent)": "13 µM", "detected": "2/3", "control signals": "1/9"}
{"changes": "F29H A33R Y60K", "Kd (apparent)": "12 µM", "detected": "1/3", "control signals": "2/9"}
{"changes": "Y32F H35I G104S", "Kd (apparent)": "5.1 nM", "detected": "3/3", "control signals": "7/9"}
{"changes": "S55A V64F R101F", "Kd (apparent)": "28 nM", "detected": "3/3", "control signals": "6/9"}
{"changes": "F27V A61P", "Kd (apparent)": "4.4 µM", "detected": "1/3", "control signals": "1/9"}
{"changes": "S52C N54P G103D", "Kd (apparent)": "260 µM", "detected": "2/3", "control signals": "5/9"}
{"changes": "F27N F106D Y108F", "Kd (apparent)": "no signal", "detected": "0/3", "control signals": "0/9"}
{"changes": "G50Q A61W G102Y", "Kd (apparent)": "no signal", "detected": "0/3", "control signals": "0/9"}
{"changes": "G26L T28W Y32M", "Kd (apparent)": "290 µM", "detected": "1/3", "control signals": "1/9"}
{"changes": "F29Y S52D W53V", "Kd (apparent)": "7.4 µM", "detected": "2/3", "control signals": "2/9"}
{"changes": "T28K G100D", "Kd (apparent)": "32 µM", "detected": "2/3", "control signals": "6/9"}
{"changes": "M34D S52F W53L", "Kd (apparent)": "130 µM", "detected": "2/3", "control signals": "3/9"}
{"changes": "A33T Y108M", "Kd (apparent)": "9.7 µM", "detected": "2/3", "control signals": "1/9"}
{"changes": "F29D Y32T A33E", "Kd (apparent)": "2.7 µM", "detected": "1/3", "control signals": "1/9"}
{"changes": "G26M H35C K65I", "Kd (apparent)": "no signal", "detected": "0/3", "control signals": "2/9"}
{"changes": "D31W W53Q A61Q", "Kd (apparent)": "16 nM", "detected": "3/3", "control signals": "3/9"}
{"changes": "G26L S63R V64S", "Kd (apparent)": "no signal", "detected": "0/3", "control signals": "0/9"}
{"changes": "G50L G59I A61I", "Kd (apparent)": "8.6 µM", "detected": "1/3", "control signals": "1/9"}
{"changes": "G26C A61T R101G", "Kd (apparent)": "6.5 µM", "detected": "1/3", "control signals": "0/9"}
{"changes": "F27C N54A Y60M", "Kd (apparent)": "76 µM", "detected": "1/3", "control signals": "0/9"}
{"changes": "F29D S52A Y60G", "Kd (apparent)": "no signal", "detected": "0/3", "control signals": "1/9"}
{"changes": "A33Y K65L G104I", "Kd (apparent)": "79 µM", "detected": "3/3", "control signals": "5/9"}
{"changes": "T28V G59N K65L", "Kd (apparent)": "no signal", "detected": "0/3", "control signals": "1/9"}
{"changes": "A33M G56C D62E", "Kd (apparent)": "no signal", "detected": "0/3", "control signals": "0/9"}

Picked from the list: the 3 lowest averages where every replicate gave a value.

{"changes": "Y32F H35I G104S", "Kd (apparent)": "5.1 nM", "detected": "3/3", "control signals": "7/9"}
{"changes": "D31W W53Q A61Q", "Kd (apparent)": "16 nM", "detected": "3/3", "control signals": "3/9"}
{"changes": "S55A V64F R101F", "Kd (apparent)": "28 nM", "detected": "3/3", "control signals": "6/9"}

The measurements come from Engelhart et al. 2022 (doi:10.1038/s41597-022-01779-4) through the FLAb antibody collection.